# Measured values as given in patent US9328124B2, “BACE inhibitors” (Eli Lilly and Company, priority 2012, dated 2016).
# Amino acid sequences for entries named in this document (tags omitted). Residues count along the entry.
# UniProt P56817, 22-460: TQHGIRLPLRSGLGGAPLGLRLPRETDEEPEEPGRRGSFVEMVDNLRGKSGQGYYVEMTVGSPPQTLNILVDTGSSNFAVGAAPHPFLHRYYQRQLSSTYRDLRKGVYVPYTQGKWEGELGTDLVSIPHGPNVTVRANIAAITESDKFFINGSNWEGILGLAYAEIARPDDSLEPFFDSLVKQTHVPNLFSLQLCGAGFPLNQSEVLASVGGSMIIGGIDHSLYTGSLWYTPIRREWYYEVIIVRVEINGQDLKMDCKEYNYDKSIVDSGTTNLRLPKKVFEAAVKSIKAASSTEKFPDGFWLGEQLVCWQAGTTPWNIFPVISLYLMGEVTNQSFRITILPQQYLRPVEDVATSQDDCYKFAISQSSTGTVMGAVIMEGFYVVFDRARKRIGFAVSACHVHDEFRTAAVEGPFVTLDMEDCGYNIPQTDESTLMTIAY
# Structures can show the parent of a compound that is named as a salt.
# Biological target: human BACE1(1-460):Fc (Homo sapiens (Human), UniProt P56817)
# Assay: BACE1 FRET assay
# Format: biochemical
# Conditions: purified recombinant human BACE1, FRET; Mean ± SEM
# Protocol: For in vitro enzymatic and cellular assays, test compounds are prepared in DMSO to make up a 10 mM stock solution. The stock solution is serially diluted in DMSO to obtain a ten-point dilution curve with final compound concentrations ranging from […] to 1 nM in a 96-well round-bottom plate before conducting the in vitro enzymatic and whole cell assays.
# Human BACE1 (accession number: AF190725) is cloned from total brain cDNA by room temperature-PCR. The nucleotide sequences corresponding to amino acid sequences #1 to 460 are inserted into the cDNA encoding human IgG1(Fc) polypeptide (Vassar et al. 1999). This fusion protein of BACE1(1-460) and human Fc, named huBACE1:Fc, is constructed into the pJB02 vector. Human BACE1(1-460):Fc (huBACE1:Fc) is transiently expressed in HEK293 cells. 250 μg cDNA of each construct is mixed with Fugene 6 and added to 1 liter HEK293 cells. Four days after the transfection, conditioned media are harvested for purification. huBACE1:Fc is purified by Protein A chromatography. The enzyme is stored at −80° C. in small aliquots.
# Serial dilutions of test compounds are prepared as described above. […] The RFU of the mixture at time 0 is recorded at excitation wavelength 355 nm and emission wavelength 460 nm, after brief mixing on a plate shaker. […] The RFU at the end of incubation is recorded with the same excitation and emission settings used at time 0. […]
smiles,measurement,value
"CC(C)(O)c1nc(N2C[C@H]3CSC(N)=N[C@@]3(c3ccc(F)cn3)C2)ncc1F [Example 12, 2-[2-[(4aR,7aR)-2-Amino-7a-(5-fluoro-2-pyridyl)-4,4a,5,7-tetrahydropyrrolo[3,4-d][1,3]thiazin-6-yl]-5-fluoro-pyrimidin-4-yl]propan-2-ol hydrochloride]",IC50,73.4 nM
